From article PMC12519566, “A TOM1 variant impairs interaction with TOLLIP, autophagosome-lysosome fusion and regulation of innate immunity” (Disease Models & Mechanisms, 2025)

How the values were obtained:
[1] = molecular target: TOLLIP (toll-interacting protein) (human) (UniProt Q9H0E2); experiment: cross-linking; proteins treated with the homobifunctional crosslinkers BS3 and glutaraldehyde
[2] = molecular target: TOLLIP (toll-interacting protein) (human) (UniProt Q9H0E2); experiment: cross-linking; glutaraldehyde dilution series (0.01-1%), 5 min at 37°C; SDS-PAGE

## TOLLIP (toll-interacting protein) (from UniProt Q9H0E2 1-274) (natural protein)
[1]
  stoichiometry N: 2
[2]
  stoichiometry N: 2
